Experiment: Solubility and stability of concentrated mixtures of sodium pyrithione, ZnCl2 and organic amines (Example 55)
Conditions: room temperature
[1] = mixture of NaPT 10.00, ZnCl2 1.74, organic amine(s) 60.50, water 27.76 weight %

2-(methylamino)ethanol
Appearance at 24 Hrs [1]: S
Appearance at 72 Hrs [1]: S
solubility and stability of mixture after 24 and 72 hours (mixtures of sodium pyrithione, ZnCl2 and the named amine): soluble and stable mixtures

From patent US6908912B2, “Pyrithione biocides enhanced by zinc metal ions and organic amines” (priority 1999, dated 2005)
